Yeast mating assay 2: variants of the scFv Ab-91

Target peptide (SARS-CoV-2 spike, HR2 region): PDVDLGDISGINAS

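Phage display of a naive human antibody library on the peptide gave the parent. Variants in AAYL51 differ from the parent at up to three CDR positions; double and triple changes were sampled at random. Affinity was read by AlphaSeq, a pooled yeast mating assay with surface-displayed partners. The frequency of each diploid, read from paired DNA barcodes, reflects how well the two displayed proteins bind. Each replicate has its own calibration line, from reference interactions of the BCL2 family. There are three technical replicates.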

Each scFv is VL, three GGGGS repeats, VH, as in the parent Ab-91, and differs from it in the CDRs of the heavy chain only.
VL: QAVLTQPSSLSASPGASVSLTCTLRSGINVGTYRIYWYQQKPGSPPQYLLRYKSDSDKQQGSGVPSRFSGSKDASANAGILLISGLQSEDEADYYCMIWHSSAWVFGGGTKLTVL
VH: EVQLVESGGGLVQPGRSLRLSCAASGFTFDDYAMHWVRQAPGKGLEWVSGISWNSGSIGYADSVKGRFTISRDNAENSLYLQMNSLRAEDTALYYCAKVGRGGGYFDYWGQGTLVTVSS

Each variant is given by its three heavy chain CDRs, as the data file delimits them; those of the parent are GFTFDDYAMH, GISWNSGSIGYADSVK, VGRGGGYFDY.
The read-out is the apparent dissociation constant on a log10 scale (nM): the lower, the stronger.
The mean shown is taken over the replicates in which the pair was detected.
"ND" marks a missing value. The strain was present, yet no cells mated with the target were sequenced in that replicate, which points to weak or no binding.
Empty control strains, which show no peptide, gave a signal in 21% of pairings with library AAYL51; the median was 4.54 and 95% of these signals were weaker than 3.26. No background was subtracted.
In this assay the parent's reference entry averaged 1.86; its copy inside this library read 0.88.

| CDR-H1 | CDR-H2 | CDR-H3 | log10 Kd, replicates | log10 Kd (nM), mean |
|---|---|---|---|---|
| GFTFDDYAMH | GISWNSGSIGYADSVC | VGRGGGYFKY | ND / ND / ND | ND |
| GFTFDDYAMH | GASWNSISIGYADTVK | VGRGGGYFDY | ND / ND / ND | ND |
| GFTFDDYTMH | GISWHSGSIGYADSVK | VGRGGGYFDY | ND / 3.56 / 4.37 | 3.97 |
| GFTFDDYAMH | GISWNSGSIGFADSVK | VGRVGGYFDV | 2.76 / 2.73 / 2.57 | 2.69 |
| GFTFDDYAMH | GISWYSGSIGYADSVK | MGRGGGNFDY | ND / ND / ND | ND |
| GFTFDDYAMH | GKSWNSGSIGYADSEA | VGRGGGYFDY | ND / ND / ND | ND |
| GFTFRDYAMH | GISWNSGSIGYATWVK | VGRGGGYFDY | 0.88 / 0.78 / 0.62 | 0.76 |
| GWTFDDYAMH | GISWNSGSIGYADSVK | VLRGGGQFDY | 4.55 / ND / ND | 4.55 |
| GFTFDDYAMH | GISWNSGQIVYADSTK | VGRGGGYFDY | 4.85 / ND / ND | 4.85 |
| GFTFDDYAMH | GISWNSGSIGYKKSVK | VGRGGGYFDY | ND / 4.90 / ND | 4.90 |
| GFTFKDYAMH | EISWNSGSIGYADSAK | VGRGGGYFDY | ND / ND / ND | ND |
| GFTFDDYAMH | GISWNSGTIGYADSNK | IGRGGGYFDY | ND / ND / ND | ND |
| GFTFDDYAMH | GISWNSGSEGYADSVK | MGRGGGYFPY | 0.88 / 0.87 / 0.40 | 0.71 |
| GFTFDDYEMM | GISWTSGSIGYADSVK | VGRGGGYFDY | 5.37 / 4.77 / 4.91 | 5.02 |
| GATFDDYAMH | GISWNSGSIGYADSVK | VGRGGGCDDY | ND / ND / ND | ND |
| GFTFDDYPMH | GISWASGSIIYADSVK | VGRGGGYFDY | ND / ND / ND | ND |
| GFTFDDYAMH | GISWVVGSIGYVDSVK | VGRGGGYFDY | ND / 3.69 / ND | 3.69 |
| GFTFDDYAMH | GISWNSGSIQYADSVK | VGRGQGYFDM | ND / ND / ND | ND |
| NFTFDDYAMH | GITWNSGSIGYADSVK | VGRGGGWFDY | 4.44 / 5.55 / 5.21 | 5.07 |
| GFTFDDYAMH | GISWNEGSIGYADSVK | VGRMGGYFDY | 3.31 / 3.91 / 2.78 | 3.34 |
| GFTFTDYAMH | GISPNSGSIGEADSVK | VGRGGGYFDY | ND / 4.15 / ND | 4.15 |
| GFTFDDYAMH | GIKWNSGSIGDADSHK | VGRGGGYFDY | 5.02 / ND / ND | 5.02 |
| GFTFDDYAIH | GISWNSASIGYADSAK | VGRGGGYFDY | 3.15 / 3.49 / 4.40 | 3.68 |
| PFTFDWYAMC | GISWNSGSIGYADSVK | VGRGGGYFDY | ND / ND / 3.96 | 3.96 |
| GFTFDDYAMH | GISWNSGSIGCACSVK | VGRGGGYFLY | ND / ND / ND | ND |
| GFTFDDAAMH | GISWNSGSIGYADSGK | VGGGGGYFDY | ND / ND / ND | ND |
| GFTFDDYAMH | GISWPSGGIGYADLVK | VGRGGGYFDY | 4.80 / 4.06 / 4.79 | 4.55 |
| GFTFDDYHMH | GISWNSGSIGYADSYK | VGRGGGYMDY | 3.40 / ND / ND | 3.40 |
| GFTFDDYAMH | GISWNSPVIGYADSVK | VGRGGGFFDY | 3.05 / ND / ND | 3.05 |
| GFTFDDSAMH | GISWNSGSIGYADSVK | VGRGGDPFDY | 1.60 / 1.99 / 2.32 | 1.97 |
| GFTFMDYAMH | GISWNWGSIGYADSVK | VGRGGGYFHY | 3.75 / 4.24 / ND | 3.99 |
| GFTFDDYAMH | GISWNSISIGEADSVK | VGRGGGYHDY | ND / ND / ND | ND |
| GFTVDDYAMH | GPSWNSGSIGYADSVK | VGRGGGYFDA | ND / ND / ND | ND |
| GFTFDTYAMH | GISWNIGSIGYADSPK | VGRGGGYFDY | ND / ND / ND | ND |
| GRTFDDYAMH | GIWWNSGHIGYADSVK | VGRGGGYFDY | ND / ND / 4.96 | 4.96 |
| RFTFDDYAMH | TISWNSGSIGRADSVK | VGRGGGYFDY | ND / ND / ND | ND |
| GFTFWDYAMH | GISWNSGSIGYADSVK | LGRSGGYFDY | 3.74 / ND / ND | 3.74 |
| GFTFDDYYMH | GTSWNSGSIGYIDSVK | VGRGGGYFDY | ND / 4.76 / 4.89 | 4.82 |
| GFTFDTYAFH | GISWNSGSIGYADSVK | VGRGGGYFDY | 1.84 / 1.50 / 1.38 | 1.58 |
| GATFDDYAMH | GISWNSGSIGYADSVK | DGRGGGYFDY | ND / ND / ND | ND |
| GITFDDYANH | GISWNSGSIGYADSVK | VGRGGGYFDY | 5.64 / 6.28 / ND | 5.96 |
| GFTFDDYAMH | GISWNSGSIGIADSVK | LHRGGGYFDY | 5.31 / ND / 4.61 | 4.96 |
| GFTFDDSAMH | GISWNSGYIGYADSVK | VGRGGMYFDY | 4.23 / 4.39 / 5.33 | 4.65 |
| GFTFDDYAMH | GISWNSGSIGYASFVK | EGRGGGYFDY | 4.14 / ND / ND | 4.14 |
| GFTFDDQGMH | GISWNSGSIGHADSVK | VGRGGGYFDY | ND / ND / ND | ND |
| FFTFDDYAMH | GNSWNSGSIGWADSVK | VGRGGGYFDY | ND / ND / ND | ND |
| GFTFDDYAMH | GISWNSGSIGFADSVR | VGRGGGYPDY | 4.38 / ND / ND | 4.38 |

The last 6 entries again:

CDR-H1	CDR-H2	CDR-H3	log10 Kd, replicates	log10 Kd (nM), mean
GFTFDDYAMH	GISWNSGSIGIADSVK	LHRGGGYFDY	5.31 / ND / 4.61	4.96
GFTFDDSAMH	GISWNSGYIGYADSVK	VGRGGMYFDY	4.23 / 4.39 / 5.33	4.65
GFTFDDYAMH	GISWNSGSIGYASFVK	EGRGGGYFDY	4.14 / ND / ND	4.14
GFTFDDQGMH	GISWNSGSIGHADSVK	VGRGGGYFDY	ND / ND / ND	ND
FFTFDDYAMH	GNSWNSGSIGWADSVK	VGRGGGYFDY	ND / ND / ND	ND
GFTFDDYAMH	GISWNSGSIGFADSVR	VGRGGGYPDY	4.38 / ND / ND	4.38

Data: MIT Lincoln Laboratory AlphaSeq set, Engelhart et al. 2022, doi:10.1038/s41597-022-01779-4, as distributed in FLAb.